# In patent US20230144845A1, “Alpha-Ketobutyrate, 2-Hydroxybutyrate, and Alpha-Ketoglutarate for Stimulating Hair Growth” (The Regents of the University of California, priority 2016, published 2023):
# “Also recorded” adds a separate entry of the source.
# Test system: 6-week old C57/B6 mice
# Test: Topical treatment of shaved dorsal skin of young mice: pigmentation and hair growth
# Type: in vivo
# Details: 16 mM in Transdermal Gel, topical every other day, vs control
# Method: Mice were topically (unless indicated otherwise) treated every other day with the indicated amount and photos were taken every week. Mice were monitored for the appearance of skin pigmentation, signaling the initiation of anagen. No hair growth (and no pigmentation) was assigned the arbitrary value of 0. Skin darkening was given a value from 0 to 100%, with the higher number indicating darker skin and visible hair growth.
# Compounds were dissolved in Transdermal Gel at 16 mM and applied on mice dorsal skin every other day. To show the pigmentation progression, the appearance of skin pigmentation, signaling the initiation of anagen, was assigned an arbitrary value based on skin darkening. No hair growth (and no pigmentation) was assigned a value of 0 and darker skin/visible hair growth was assigned with higher numbers. Photos were taken weekly to document the pigmentation/hair changes.
# Dorsal hair was shaved by trimmer at Week 7 and α-KB acid was dissolved in Transdermal Gel at 16 mM and applied on mice dorsal skin every other day.
structure (smiles),measurement,value
"O=C(O)CCC(=O)C(=O)O [α-KG, alpha-ketoglutarate]",hair growth,longer and thicker hair than control; also recorded: stimulates hair growth by Day 14
same,skin pigmentation (initiation of anagen),pigmentation burst was observed after one week; also recorded: reduces age-related pigmentation loss; also recorded: improves hair pigmentation
